Test system: FLAG-tagged Aurora A in HEK293/Pank1β cells
Assay: Aurora A Thr 288 phosphorylation and dimerization in cells treated with oxidising agents (immunoblot)
Format: cell-based, human
Settings: 30 min treatment, samples separated in the presence of DTT

For `O=[As]c1ccccc1` (stereo not shown), the “Aurora A phosphorylation at Thr 288 in cells” value was “promoted an increase”.
